Target: RANTES / MIP-1α binding to THP-1 cell membranes (Homo sapiens, UniProt P32246)
Assay: Receptor binding assay, 125I-RANTES or 125I-MIP-1α binding to THP-1 cell membranes
Settings: read-out: IC50 (inhibitor concentration required for 50% inhibition of specific binding), 125I-RANTES or 125I-MIP-1α as ligand, 60 min at room temperature
Method: Membranes were prepared from THP-1 cells (ATCC #TIB202). Cells were harvested by centrifugation, washed twice with PBS (phosphate-buffered saline), and the cell pellets were frozen at −70 to −85° C. […] This procedure results in cell lysis. The suspension was mixed well to resuspend all of the frozen cell pellet. Nuclei and cell debris were removed by centrifugation of 400×g for 10 minutes at 4° C. The supernatant was transferred to a fresh tube and the membrane fragments were collected by centrifugation at 25,000×g for 30 minutes at 4° C. The supernatant was aspirated and the pellet was resuspended in freezing buffer consisting of 10 mM HEPES pH 7.5, 300 mM sucrose, 1 μg/ml each aprotinin, leupeptin, and chymostatin, and 10 μg/ml PMSF (approximately 0.1 ml per each 10^8 cells). All clumps were resolved using a minihomogenizer, and the total protein concentration was determined using a protein assay kit (Bio-Rad, Hercules, Calif., cat #500-0002). The membrane solution was then aliquoted and frozen at −70 to −85° C. until needed. Binding Assays utilized the membranes described above. […] The filters were rinsed with approximately 600 μl of binding buffer containing 0.5 M NaCl, dried, and the amount of bound radioactivity was determined by scintillation counting in a Topcount beta-plate counter.

Protein sequences, listed by entry. Tags and fused reporters are not part of them.
UniProt P32246, whole entry: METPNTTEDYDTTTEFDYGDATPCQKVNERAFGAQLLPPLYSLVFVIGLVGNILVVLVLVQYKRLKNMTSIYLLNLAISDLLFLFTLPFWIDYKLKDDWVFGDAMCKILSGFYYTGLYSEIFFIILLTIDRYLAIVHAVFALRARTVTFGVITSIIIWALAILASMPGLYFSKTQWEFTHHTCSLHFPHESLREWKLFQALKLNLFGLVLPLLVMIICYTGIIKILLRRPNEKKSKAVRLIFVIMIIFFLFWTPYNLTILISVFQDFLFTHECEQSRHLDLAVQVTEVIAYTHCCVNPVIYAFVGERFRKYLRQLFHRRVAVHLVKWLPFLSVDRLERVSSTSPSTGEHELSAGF

| SMILES | IC50 [nM] |
| --- | --- |
| Cc1cccc(C2(O)CCN(CCCC3(C#N)c4ccccc4CSc4ccccc43)CC2)c1 (centres unmarked) | < 1000 |
| N#CC1(CCCN2CCC(O)(c3ccc(F)cc3)CC2)c2ccccc2CSc2ccccc21 (centres unmarked) | < 1000 |
